From patent publication US9499523B2, “Phosphatidylinositol 3-kinase inhibitors” (Gilead Sciences, Inc., priority 2014, dated 2016)

Sequences of proteins named here, by UniProt entry; tags and fusion partners are left off. A change or cut given only in a name is not applied to a line headed by its entry.
UniProt P48736: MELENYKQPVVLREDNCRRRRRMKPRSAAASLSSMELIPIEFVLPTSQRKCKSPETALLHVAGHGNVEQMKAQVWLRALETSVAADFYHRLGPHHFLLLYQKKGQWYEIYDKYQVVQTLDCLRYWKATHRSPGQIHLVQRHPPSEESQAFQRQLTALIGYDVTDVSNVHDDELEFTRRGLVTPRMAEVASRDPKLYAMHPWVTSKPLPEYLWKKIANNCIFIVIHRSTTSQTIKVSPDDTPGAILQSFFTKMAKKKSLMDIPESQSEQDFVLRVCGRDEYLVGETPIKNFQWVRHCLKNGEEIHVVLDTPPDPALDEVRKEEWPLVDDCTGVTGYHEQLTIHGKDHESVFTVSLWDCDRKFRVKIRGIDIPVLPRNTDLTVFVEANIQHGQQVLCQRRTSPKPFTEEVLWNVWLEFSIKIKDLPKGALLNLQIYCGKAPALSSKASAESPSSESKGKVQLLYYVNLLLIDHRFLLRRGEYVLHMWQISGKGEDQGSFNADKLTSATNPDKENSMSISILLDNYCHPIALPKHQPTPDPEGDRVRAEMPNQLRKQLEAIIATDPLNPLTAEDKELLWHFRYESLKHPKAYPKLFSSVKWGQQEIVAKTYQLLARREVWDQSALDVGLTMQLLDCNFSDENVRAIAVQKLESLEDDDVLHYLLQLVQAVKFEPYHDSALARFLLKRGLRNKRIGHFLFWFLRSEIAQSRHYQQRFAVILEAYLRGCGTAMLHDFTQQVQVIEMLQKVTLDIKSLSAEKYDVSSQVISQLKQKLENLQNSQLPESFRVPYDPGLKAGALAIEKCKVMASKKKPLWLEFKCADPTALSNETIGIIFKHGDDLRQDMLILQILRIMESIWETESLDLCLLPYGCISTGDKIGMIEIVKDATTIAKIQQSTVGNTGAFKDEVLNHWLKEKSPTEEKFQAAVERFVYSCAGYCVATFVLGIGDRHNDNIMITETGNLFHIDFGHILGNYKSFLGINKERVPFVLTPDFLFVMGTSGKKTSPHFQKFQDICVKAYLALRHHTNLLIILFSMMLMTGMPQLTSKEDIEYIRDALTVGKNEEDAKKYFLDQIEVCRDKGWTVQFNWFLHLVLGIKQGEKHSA
UniProt P42338: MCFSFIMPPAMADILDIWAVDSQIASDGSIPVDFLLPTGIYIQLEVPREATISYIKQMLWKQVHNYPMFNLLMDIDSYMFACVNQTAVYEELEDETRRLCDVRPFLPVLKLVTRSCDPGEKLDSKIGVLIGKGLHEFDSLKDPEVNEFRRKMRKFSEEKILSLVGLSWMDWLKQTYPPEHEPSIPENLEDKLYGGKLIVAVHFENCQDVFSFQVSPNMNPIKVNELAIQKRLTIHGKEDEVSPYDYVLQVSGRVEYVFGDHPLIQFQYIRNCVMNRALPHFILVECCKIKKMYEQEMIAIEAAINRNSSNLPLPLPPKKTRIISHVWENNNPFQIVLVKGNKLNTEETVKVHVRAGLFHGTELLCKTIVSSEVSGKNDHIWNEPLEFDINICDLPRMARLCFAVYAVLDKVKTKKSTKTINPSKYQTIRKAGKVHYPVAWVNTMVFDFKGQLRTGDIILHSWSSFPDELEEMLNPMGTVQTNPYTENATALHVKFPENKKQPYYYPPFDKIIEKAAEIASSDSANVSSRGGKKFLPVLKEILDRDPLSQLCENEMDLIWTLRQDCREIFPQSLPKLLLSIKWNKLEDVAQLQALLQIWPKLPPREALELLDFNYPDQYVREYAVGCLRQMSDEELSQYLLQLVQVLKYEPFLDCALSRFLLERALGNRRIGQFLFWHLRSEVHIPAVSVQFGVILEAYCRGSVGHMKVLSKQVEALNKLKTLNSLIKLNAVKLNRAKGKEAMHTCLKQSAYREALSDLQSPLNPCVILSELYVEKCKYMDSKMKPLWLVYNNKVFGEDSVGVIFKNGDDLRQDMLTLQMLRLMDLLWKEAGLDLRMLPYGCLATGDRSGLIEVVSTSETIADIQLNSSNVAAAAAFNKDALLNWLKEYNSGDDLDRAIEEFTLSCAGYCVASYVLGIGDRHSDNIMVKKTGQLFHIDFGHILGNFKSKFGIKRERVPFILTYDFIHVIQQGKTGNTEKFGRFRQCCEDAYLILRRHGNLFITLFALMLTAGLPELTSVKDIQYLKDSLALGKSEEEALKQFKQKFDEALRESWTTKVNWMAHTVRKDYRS
UniProt O00329: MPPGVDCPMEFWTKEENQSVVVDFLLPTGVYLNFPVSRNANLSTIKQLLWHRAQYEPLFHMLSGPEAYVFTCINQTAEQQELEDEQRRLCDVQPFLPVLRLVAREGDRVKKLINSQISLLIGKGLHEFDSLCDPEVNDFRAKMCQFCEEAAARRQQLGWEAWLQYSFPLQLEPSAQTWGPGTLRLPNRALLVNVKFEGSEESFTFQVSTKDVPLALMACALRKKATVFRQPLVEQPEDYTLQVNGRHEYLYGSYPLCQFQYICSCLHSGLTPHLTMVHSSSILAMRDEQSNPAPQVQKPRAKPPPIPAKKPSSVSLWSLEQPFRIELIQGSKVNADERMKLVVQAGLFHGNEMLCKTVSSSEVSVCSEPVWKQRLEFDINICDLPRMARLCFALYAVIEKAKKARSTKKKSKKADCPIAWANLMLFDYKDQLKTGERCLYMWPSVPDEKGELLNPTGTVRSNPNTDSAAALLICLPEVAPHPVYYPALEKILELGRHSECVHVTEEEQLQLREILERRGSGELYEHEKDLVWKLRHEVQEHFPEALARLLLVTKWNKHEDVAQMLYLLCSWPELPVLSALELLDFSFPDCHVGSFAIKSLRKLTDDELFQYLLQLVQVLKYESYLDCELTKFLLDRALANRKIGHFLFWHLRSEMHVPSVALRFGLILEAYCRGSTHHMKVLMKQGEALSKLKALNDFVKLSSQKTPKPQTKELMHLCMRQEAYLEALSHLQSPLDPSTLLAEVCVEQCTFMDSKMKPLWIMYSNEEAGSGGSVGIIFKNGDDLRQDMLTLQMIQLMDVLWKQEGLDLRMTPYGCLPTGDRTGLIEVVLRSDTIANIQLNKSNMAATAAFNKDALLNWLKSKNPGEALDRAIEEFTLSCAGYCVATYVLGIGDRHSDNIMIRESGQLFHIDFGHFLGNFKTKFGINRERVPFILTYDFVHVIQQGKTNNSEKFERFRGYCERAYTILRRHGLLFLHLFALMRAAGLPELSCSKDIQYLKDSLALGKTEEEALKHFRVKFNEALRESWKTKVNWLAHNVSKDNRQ

Legend:
PI3Kγ = PI3Kγ (Homo sapiens (Human), UniProt P48736); test: TR-FRET enzymatic assay of PI3K isoforms, PI3Kγ; format: biochemical; conditions: 2×Km ATP, PI3Kγ at 2 nM, 30 minutes at 25° C.
PI3Kβ = PI3Kβ (Homo sapiens (Human), UniProt P42338); test: TR-FRET enzymatic assay of PI3K isoforms, PI3Kβ; format: biochemical; conditions: 2×Km ATP, 30 minutes at 25° C.
PI3Kδ = PI3Kδ (Homo sapiens (Human), UniProt O00329); test: TR-FRET enzymatic assay of PI3K isoforms, PI3Kδ; conditions: read-out: PI3Kδ IC50, 2×Km ATP, 30 minutes at 25° C.

IC50 (PI3Kγ): 7 nM
IC50 (PI3Kβ): 11 nM
IC50 (PI3Kδ): 0.2 nM
SMILES: C[C@H](Nc1nc(N)nc(N)c1C#N)c1nc2cccc(Cl)c2c(=O)n1-c1cccnc1 [Compound X, (S)-2,4-diamino-6-((1-(5-chloro-4-oxo-3-(pyridin-3-yl)-3,4-dihydroquinazolin-2-yl)ethyl)amino)pyrimidine-5-carbonitrile, reference compound]
